In the assay the target is Cj6OMT (Coptis japonica, UniProt Q9LEL6).

By UniProt entry, the sequences of proteins in these tests, tags left out.
UniProt Q9LEL6, whole entry: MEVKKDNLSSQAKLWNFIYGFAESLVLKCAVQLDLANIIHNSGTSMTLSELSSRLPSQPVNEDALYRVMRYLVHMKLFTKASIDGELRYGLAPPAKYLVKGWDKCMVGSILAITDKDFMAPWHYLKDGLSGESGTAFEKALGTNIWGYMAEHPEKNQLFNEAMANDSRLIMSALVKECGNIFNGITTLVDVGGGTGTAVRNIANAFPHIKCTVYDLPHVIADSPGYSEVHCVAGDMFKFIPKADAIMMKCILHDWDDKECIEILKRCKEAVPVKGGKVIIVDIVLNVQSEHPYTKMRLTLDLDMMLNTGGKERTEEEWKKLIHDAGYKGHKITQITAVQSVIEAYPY

The structures appear in SMILES notation.

What is called Km is the concentration of substrate that gives half-maximal velocity.

For the compound `COc1ccc2c(c1O)CN1CCc3cc(O)c(O)cc3C1C2` (stereo not shown), the Michaelis constant (Km) came out at 59.5 µM.

Source of the values: publication PMC10607743, “An Enzymatic Strategy for the Selective Methylation of High-Value-Added Tetrahydroprotoberberine Alkaloids” (International Journal of Molecular Sciences, 2023).
